# Patent publication US20220193384A1, “CUTANEOUS DEVICE FOR STORING AND RELEASING MOLECULES, AND CORRESPONDING METHOD” (priority 2019, published 2022)
# Test: Skin permeation, static Franz diffusion cell, passive and electrothermally activated patch
# [1] = electrothermal activation 1 V, 10 min, stock solution 100 μg mL^−1 for loading, mouse skin
# [2] = passive, no activation, stock solution 100 μg mL^−1 for loading, mouse skin
substance,measurement,setting,value
insulin,Drug permeated under electrothermal activation at temperature below 50° C.,"10 min activation, varied voltage/temperature, FIG. 8A",an increased amount could be detected
same,"Active, amount of drug permeated",[1],24 µg/mL
same,Flux active,[1],2.60 μg cm^−2 h^−1
same,Flux passive,[2],0 μg cm^−2 h^−1
same,"Passive, amount of drug permeated",[2],0 µg/mL
